According to patent publication US11364285B2, “Methods, compositions, and molecular targets that exploit synergies and symbioses in the termite gut” (priority 2016, dated 2022):

Tested on: host gut and protist/symbiont genes
Format: in vivo
Conditions: 48 h
Description: After two days, a subset of ten termites was removed from each of the replicate colony treatments (20 total samples), cold-immobilized, surface-sterilized by a serial rinse in 0.3% sodium hypochlorite (1×) and sterilized water (2×), and dissected on Parafilm to collect digestive tracts, including salivary glands. Digestive tracts were transferred into RLA Lysis Buffer (Promega, Fitchburg, Wis., USA) and stored at −70° C. until RNA isolation. RNA extraction and cDNA synthesis was performed.
Experiments were designed after MIAME guidelines. A type II microarray design was used with a common-reference strategy. The common reference consisted of a normalized blend of all RNA samples included in the experiment. This common reference was co-hybridized against each replicate sample on single microarrays. Dye swaps were performed between replicate samples and references to check for potential dye impacts on spot intensity. […] Specifically, such microarrays contained a mix of ˜14,500 cDNA oligonucleotides representing 10,500 host gut and protist/symbiont genes, including stereotypical immune response genes, thereby providing simultaneous assessments of host and protist gene expression. Reported analyses consisted of five pairwise comparisons to a common control as denoted by the numbers 1-5 in FIG. 4. […]

O=[N+]([O-])NC1=NCCN1Cc1ccc(Cl)nc1 [I, imidacloprid]
Fold change: cell surface leucine-rich repeat-containing protein: 1.25
